We go through one molecule from paper PMC3688631 (ACS medicinal chemistry letters, 2013).

Protein sequences, listed by entry. Tags and fused reporters are not part of them.
UniProt P42336, whole entry Q859D: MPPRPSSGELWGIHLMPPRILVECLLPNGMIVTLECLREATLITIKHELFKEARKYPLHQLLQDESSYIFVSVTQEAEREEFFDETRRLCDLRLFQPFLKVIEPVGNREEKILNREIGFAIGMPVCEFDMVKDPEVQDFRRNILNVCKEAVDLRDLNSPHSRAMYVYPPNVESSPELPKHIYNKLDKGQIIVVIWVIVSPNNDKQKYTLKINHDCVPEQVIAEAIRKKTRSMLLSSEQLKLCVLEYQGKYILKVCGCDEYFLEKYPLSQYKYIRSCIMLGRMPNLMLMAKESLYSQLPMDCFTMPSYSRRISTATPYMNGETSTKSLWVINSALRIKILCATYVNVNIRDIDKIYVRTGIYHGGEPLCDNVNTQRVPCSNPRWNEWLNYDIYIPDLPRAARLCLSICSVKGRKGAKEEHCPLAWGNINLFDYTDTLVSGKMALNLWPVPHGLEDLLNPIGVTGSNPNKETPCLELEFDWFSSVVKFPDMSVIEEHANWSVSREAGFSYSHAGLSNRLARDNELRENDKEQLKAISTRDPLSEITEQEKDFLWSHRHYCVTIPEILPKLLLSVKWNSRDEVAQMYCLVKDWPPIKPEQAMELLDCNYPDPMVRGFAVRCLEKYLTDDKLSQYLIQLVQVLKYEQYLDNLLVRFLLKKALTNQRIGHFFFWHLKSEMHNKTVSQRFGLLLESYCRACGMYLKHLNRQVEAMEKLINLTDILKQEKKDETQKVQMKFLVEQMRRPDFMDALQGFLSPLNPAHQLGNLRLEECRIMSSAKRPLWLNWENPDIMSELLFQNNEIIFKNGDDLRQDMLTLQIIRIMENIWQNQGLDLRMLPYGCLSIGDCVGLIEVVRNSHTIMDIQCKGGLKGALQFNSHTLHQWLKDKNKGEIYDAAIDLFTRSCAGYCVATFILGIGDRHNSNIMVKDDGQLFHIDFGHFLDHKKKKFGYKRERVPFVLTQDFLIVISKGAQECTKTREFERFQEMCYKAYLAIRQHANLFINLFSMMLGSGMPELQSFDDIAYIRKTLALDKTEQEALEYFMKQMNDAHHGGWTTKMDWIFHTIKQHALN

This experiment has as its target PI3Kα Q859D (Homo sapiens, UniProt P42336, Q859D). Kind of experiment: Inhibition of in vitro mutant PI3Kα Q859D. In kind it is biochemical.

What is called IC50 is the concentration at which inhibition is half-maximal. Higher therefore signals weaker potency. Take `C[C@H](N)C(=O)N1CCN(c2nc(N3CCOCC3)nc(-n3c(C(F)F)nc4ccccc43)n2)CC1` [Compound 19]: the concentration for half-maximal inhibition (IC50) came out at 2300 nM.
